In published antibiotic growth screens (doi:10.1038/s41589-023-01349-8) one finds relative growth data, which are given here for 24 compounds.

The list shows a part of the results.

The experiment deals with A. baumannii ATCC 17978. In words: relative growth (fraction of control); higher = less inhibition. The note with it: 50 µM.
`CO[C@@H]1CN(C)C(=O)c2cc(NC(=O)Nc3cccc(F)c3)ccc2OC[C@@H](C)N(C(=O)Nc2c(C)noc2C)C[C@@H]1C`: the relative growth is 0.956.

The compound `CC1=C(C(=O)O)N2C(=O)[C@@H](NC(=O)[C@@H](N)c3ccc(O)cc3)[C@H]2SC1` gave a relative growth of 1.03.

In turn, `O=C(N[C@@H](CO)[C@H](O)c1ccc([N+](=O)[O-])cc1)C(Cl)Cl` gave a relative growth of 0.495.

For `N[C@H]1[C@@H](O[C@H]2[C@H](O)[C@@H](OS(=O)(=O)[O-])[C@H](CO[C@H]3[C@H](O)[C@@H](O)[C@@H](O)O[C@@H]3CO)O[C@@H]2C(=O)[O-])O[C@H](COS(=O)(=O)[O-])[C@@H](O)[C@@H]1O`, the relative growth turned out to be 0.989.

Take `Cc1cc(C)c(/N=c2\scc(C)n2Cc2ccccc2)c(C)c1`: the relative growth amounted to 0.981.

The compound `Cc1ccc(S[C@]2(C(=O)NCC(F)(F)F)CC(=O)N(Cc3cc(C(F)(F)F)cc(C(F)(F)F)c3)[C@@H]2c2ccc(CO)cc2I)cc1` displayed a relative growth of 0.899.

`Cc1ccc(/C=N/N(C)C2=NCCN2)o1` came in with a relative growth of 0.997.

On to `C[C@H](C(=O)O)N1C(=O)c2ccccc2C1=O`, for which the relative growth is 0.998.

Regarding `CC(C)C[C@@H](NC(=O)[C@@H](C)N)C(=O)O`, the relative growth worked out at 0.925.

`C[C@H]1CN([C@@H](C)CO)C(=O)Cc2cc(NC(=O)Nc3cccc(C(F)(F)F)c3)ccc2O[C@H]1CN(C)S(=O)(=O)c1ccc(Cl)cc1` displayed a relative growth of 1.13.

`C[C@H]1CN([C@@H](C)CO)S(=O)(=O)c2ccc(Br)cc2O[C@@H]1CN(C)C(=O)c1cnccn1` displayed a relative growth of 0.974.

`O=C([O-])CCCc1ccccc1.[Na+]`: the relative growth is 1.24.

Compound `CC(C)Sc1n[nH]c(=O)[nH]c1=O` returned a relative growth of 1.01.

Turning to `Nc1nnnn1/N=C\c1ccc(O)cc1`, the relative growth is 1.01.

`Cn1cnc(CCNC(=O)C[C@@H]2CC[C@H]3[C@@H](COC[C@H](O)CN3C(=O)Nc3ccc(Cl)cc3)O2)c1` showed a relative growth of 0.813.

For the compound `CCC(=O)Nc1ccc(Cl)cc1`, the relative growth turned out to be 0.996.

As for `CO[C@H]1CN(C)C(=O)c2ccc(NC(=O)Nc3ccccc3)cc2OC[C@H](C)N(C(=O)CN(C)C)C[C@H]1C`, the relative growth is 1.04.

`COc1cc(Cc2cnc(N)nc2N)cc(OC)c1OC` showed a relative growth of 0.158.

In turn, `CC1(C)O[C@H]2CC(=O)OC[C@]23[C@H]2CC[C@@]4(C)[C@H](c5ccoc5)OC(=O)[C@H]5O[C@]54[C@]2(C)C(=O)C[C@@H]13` came in with a relative growth of 0.84.

Turning to `CNc1cc(=O)n(C)c(=O)n1C`, the relative growth amounted to 0.962.

Compound `O=C(CCCCCCC(=O)Nc1ccc([C@@H]2O[C@H](CSc3nc(-c4ccccc4)c(-c4ccccc4)o3)C[C@H](c3ccccc3)O2)cc1)NO` had a relative growth of 0.986.

In the case of `COC[C@H]1CNN1C(=O)Nc1c(C)noc1C`, the relative growth stood at 0.998.

The compound `NNC(=O)CCCCCCC(=O)O` yielded a relative growth of 0.897.

On to `COC(=O)[C@H]1CCNCCC1=O`, for which the relative growth was 1.05.
